Results reported in ChEMBL document CHEMBL1138840, “Discovery of positive allosteric modulators for the metabotropic glutamate receptor subtype 5 from a series of N-(1,3-diphenyl-1H- pyrazol-5-yl)benzamides that potentiate receptor function in vivo” (J Med Chem, 2004).

Amino acid sequences for entries named in this document (tags omitted).
UniProt P41594, whole entry: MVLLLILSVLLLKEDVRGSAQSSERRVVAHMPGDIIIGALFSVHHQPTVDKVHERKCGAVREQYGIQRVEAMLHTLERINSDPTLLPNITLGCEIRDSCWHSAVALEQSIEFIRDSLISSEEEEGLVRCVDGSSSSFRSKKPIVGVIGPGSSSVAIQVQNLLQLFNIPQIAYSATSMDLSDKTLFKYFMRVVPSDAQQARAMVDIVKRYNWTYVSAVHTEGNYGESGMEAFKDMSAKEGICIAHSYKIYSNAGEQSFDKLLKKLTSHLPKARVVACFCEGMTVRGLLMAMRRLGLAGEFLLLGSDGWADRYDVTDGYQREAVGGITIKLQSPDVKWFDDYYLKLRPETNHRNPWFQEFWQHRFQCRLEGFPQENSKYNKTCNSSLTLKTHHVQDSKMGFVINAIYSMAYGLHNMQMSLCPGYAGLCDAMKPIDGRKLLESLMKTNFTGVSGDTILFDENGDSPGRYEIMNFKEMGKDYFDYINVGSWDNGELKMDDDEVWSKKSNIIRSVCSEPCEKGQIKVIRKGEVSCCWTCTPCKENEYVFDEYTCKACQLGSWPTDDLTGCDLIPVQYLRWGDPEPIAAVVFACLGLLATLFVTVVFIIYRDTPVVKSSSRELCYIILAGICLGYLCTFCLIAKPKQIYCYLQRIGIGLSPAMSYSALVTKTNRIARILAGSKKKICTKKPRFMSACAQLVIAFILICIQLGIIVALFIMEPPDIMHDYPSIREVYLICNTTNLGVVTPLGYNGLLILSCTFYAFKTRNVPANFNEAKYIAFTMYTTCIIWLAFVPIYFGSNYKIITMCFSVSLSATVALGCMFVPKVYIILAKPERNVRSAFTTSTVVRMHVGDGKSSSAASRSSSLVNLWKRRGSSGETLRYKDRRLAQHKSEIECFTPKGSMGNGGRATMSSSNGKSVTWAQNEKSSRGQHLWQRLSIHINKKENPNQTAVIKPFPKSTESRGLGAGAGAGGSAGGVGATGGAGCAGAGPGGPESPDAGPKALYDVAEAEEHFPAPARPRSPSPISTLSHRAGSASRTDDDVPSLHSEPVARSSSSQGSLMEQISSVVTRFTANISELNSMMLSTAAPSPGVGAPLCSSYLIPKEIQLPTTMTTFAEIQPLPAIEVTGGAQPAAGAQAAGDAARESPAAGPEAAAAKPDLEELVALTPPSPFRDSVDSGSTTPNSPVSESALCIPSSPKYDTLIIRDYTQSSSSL
UniProt P31424, whole entry: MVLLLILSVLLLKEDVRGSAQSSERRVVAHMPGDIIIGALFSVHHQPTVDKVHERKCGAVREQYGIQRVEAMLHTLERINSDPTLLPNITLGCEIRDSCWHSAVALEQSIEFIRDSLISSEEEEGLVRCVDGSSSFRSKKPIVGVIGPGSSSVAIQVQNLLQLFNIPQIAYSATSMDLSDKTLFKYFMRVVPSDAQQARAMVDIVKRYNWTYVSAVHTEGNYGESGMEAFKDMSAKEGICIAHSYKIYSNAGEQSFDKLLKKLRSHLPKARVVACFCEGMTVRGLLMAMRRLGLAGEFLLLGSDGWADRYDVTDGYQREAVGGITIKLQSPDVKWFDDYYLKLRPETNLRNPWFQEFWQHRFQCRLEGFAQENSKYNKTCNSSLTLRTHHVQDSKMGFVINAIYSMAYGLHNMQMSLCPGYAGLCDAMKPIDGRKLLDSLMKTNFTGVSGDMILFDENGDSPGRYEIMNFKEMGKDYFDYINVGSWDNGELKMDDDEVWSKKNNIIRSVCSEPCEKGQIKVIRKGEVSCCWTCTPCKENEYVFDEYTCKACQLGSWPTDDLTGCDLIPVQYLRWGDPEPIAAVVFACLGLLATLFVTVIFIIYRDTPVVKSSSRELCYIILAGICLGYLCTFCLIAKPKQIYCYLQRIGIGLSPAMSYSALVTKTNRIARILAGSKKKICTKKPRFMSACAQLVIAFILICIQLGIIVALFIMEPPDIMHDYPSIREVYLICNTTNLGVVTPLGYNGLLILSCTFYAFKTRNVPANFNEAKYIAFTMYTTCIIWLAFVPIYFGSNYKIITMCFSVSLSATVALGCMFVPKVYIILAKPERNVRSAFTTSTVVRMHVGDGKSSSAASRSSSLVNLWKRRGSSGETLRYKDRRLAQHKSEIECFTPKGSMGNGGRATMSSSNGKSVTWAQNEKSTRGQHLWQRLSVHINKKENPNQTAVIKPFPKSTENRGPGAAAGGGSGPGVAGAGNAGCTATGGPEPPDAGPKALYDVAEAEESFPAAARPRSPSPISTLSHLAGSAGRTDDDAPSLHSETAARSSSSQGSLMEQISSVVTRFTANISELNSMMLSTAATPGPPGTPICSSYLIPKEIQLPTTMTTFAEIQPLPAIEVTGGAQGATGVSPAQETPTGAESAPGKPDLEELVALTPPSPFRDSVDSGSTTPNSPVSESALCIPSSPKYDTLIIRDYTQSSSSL

How the values were obtained:
[1] = biological target: Metabotropic glutamate receptor 5 (Homo sapiens, UniProt P41594); experiment: Effective concentration against metabotropic glutamate receptor 5 of human transfected into CHO cells; type: cell-based
[2] = biological target: Metabotropic glutamate receptor 5 (Rattus norvegicus, UniProt P31424); experiment: Effective concentration against metabotropic glutamate receptor 5 of rat
Summary of the method: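 FLIPR calcium assay in CHO cells transfected with human or rat mGluR5. Compound added with a low glutamate concentration (300 nM), measuring increase in response; compound alone (up to 100 µM) checked for agonist activity. EC50 for potentiation and maximal fold potentiation over the glutamate response determined; values may vary up to 5-fold day to day owing to steep agonist curves (nH ~2).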

EC50 [1]: 10 nM
EC50 [2]: 20 nM
Structure (SMILES): N#Cc1cccc(C(=O)Nc2cc(-c3ccccc3)nn2-c2ccccc2)c1
